## Antibody variant affinities, Ab-14 heavy chain, assay 1

Data: MIT Lincoln Laboratory AlphaSeq set, Engelhart et al. 2022, doi:10.1038/s41597-022-01779-4, as distributed in FLAb.

Antigen: PDVDLGDISGINAS, a 14-residue peptide of the SARS-CoV-2 spike HR2 region.

Parent: Ab-14, a human scFv built as VH, a (GGGGS)3 linker, VL. Only the CDRs of the heavy chain vary.
VH: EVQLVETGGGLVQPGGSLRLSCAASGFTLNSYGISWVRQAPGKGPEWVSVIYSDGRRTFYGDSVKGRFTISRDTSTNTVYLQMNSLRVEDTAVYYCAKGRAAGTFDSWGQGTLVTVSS
VL: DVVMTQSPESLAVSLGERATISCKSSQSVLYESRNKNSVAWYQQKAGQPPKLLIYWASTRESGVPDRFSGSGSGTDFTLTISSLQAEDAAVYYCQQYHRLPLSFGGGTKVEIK

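The parent was found by panning a naive human phage display library on the peptide. Library AAYL49 holds single substitutions and randomly drawn double and triple substitutions in the CDRs. Affinity was read by AlphaSeq, a pooled yeast mating assay with surface-displayed partners. The frequency of each diploid, read from paired DNA barcodes, reflects how well the two displayed proteins bind. Read counts were normalised to the haploid input and turned into Kd by a linear fit to BCL2-family pairs of known affinity, for each replicate. Each pool was mated in three replicate cultures.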

Substitutions are numbered in sequence along the VH above, starting at 1 (not Kabat).
Each Kd is an estimate from the mating assay, the geometric mean of the replicates in which the pair was seen; lower is stronger.
An entry "nd" has no value in the source: the pair was not observed among the diploids in any replicate. This suggests poor binding but is not conclusive.
Background: pairings of library AAYL49 with three empty control strains gave a value in 15% of cases (median 11 µM, 5th percentile 680 nM). Values in that range, when seen in few replicates, are hard to tell from nonspecific mating.

For Y60T+G99S+T104K, the assay gave nd (0 of 3 replicates).
For G33D+S53I+A102R, the assay gave 1.1 µM (1 of 3 replicates).
For G33Q+K65G, the assay gave 2.9 µM (2 of 3 replicates).
For T58L+R100E+T104E, the assay gave nd (0 of 3 replicates).
For T28D+G103Q+F105S, the assay gave 2.4 nM (3 of 3 replicates).
For N30K+Y60H+A102N, the assay gave nd (0 of 3 replicates).
For S31H+S35F+K65N, the assay gave nd (0 of 3 replicates).
For F59H+G61W+D106Y, the assay gave nd (0 of 3 replicates).
For G55K+V64Q, the assay gave nd (0 of 3 replicates).
For T28I+R57D+D62V, the assay gave 130 µM (1 of 3 replicates).
For G26I+S63K+D106A, the assay gave 1.0 µM (3 of 3 replicates).
For S63H+G99V+D106L, the assay gave nd (0 of 3 replicates).
For L29A+R56D+Y60H, the assay gave 18 µM (1 of 3 replicates).
For S31M+D54F+G99I, the assay gave 40 µM (1 of 3 replicates).
For Y52D+T58V+F59N, the assay gave nd (0 of 3 replicates).
For G26D+I51N, the assay gave 360 µM (1 of 3 replicates).
For R56D+G103F, the assay gave 25 nM (3 of 3 replicates).
For F27V+K65M+G99V, the assay gave 3.0 µM (2 of 3 replicates).
For G26Y+Y32L+S35F, the assay gave 1.6 µM (1 of 3 replicates).
For S63M+K65I+T104M, the assay gave 2.3 µM (3 of 3 replicates).
For S63H+V64S+G103N, the assay gave nd (0 of 3 replicates).
For F27T+T58P+G99K, the assay gave nd (0 of 3 replicates).
For F27N+G55Q+D62K, the assay gave nd (0 of 3 replicates).
For L29R+S35K+Y52F, the assay gave nd (0 of 3 replicates).
For V50W+I51K+D54E, the assay gave nd (0 of 3 replicates).
For Y32V+G61C+D106G, the assay gave nd (0 of 3 replicates).
For D54I+S63G+G103Y, the assay gave nd (0 of 3 replicates).
For F27N+L29C+D62R, the assay gave 6.4 µM (1 of 3 replicates).
For I34N+Y52T+G55W, the assay gave 25 µM (1 of 3 replicates).
For F27S+S35W+G61V, the assay gave nd (0 of 3 replicates).
For L29E+Y32F+S63C, the assay gave nd (0 of 3 replicates).
For Y60E+S63K+A102K, the assay gave nd (0 of 3 replicates).
For N30A+G33Y+V64D, the assay gave nd (0 of 3 replicates).

Excerpt, the final 4 entries:

changes,apparent Kd,detected
F27S+S35W+G61V,nd,0/3
L29E+Y32F+S63C,nd,0/3
Y60E+S63K+A102K,nd,0/3
N30A+G33Y+V64D,nd,0/3